In patent US6756390B2, “Organic acid salt of amlodipine” (CJ Corp., priority 2002, dated 2004):
Read-outs that look alike come from different tables or passages of the source.

How the values were obtained:
Type in all cases: physicochemical
[1] = Light stability, 4 weeks at 25° C. with exposure to daylight, HPLC
Text: A measurement was made of the contents of the salts with resort to HPLC under the same conditions as in the chemical stability test.

[2] = Solubility in various solvents at 37° C.
Text: The solubilities (mg/ml) of Table 8 are values based on the weight of amlodipine converted from the salts.

[3] = Chemical stability in solid state, accelerated test at 60° C.

Amlodipine Tetrahydro-5-oxo-2-furancarboxylic acid (Racemate) [TOF salt]
Color change on light exposure ([1]; 4 weeks, 25° C., daylight): no color change | Content (HPLC), Stored 4 weeks, 25° C. daylight ([1]; 4 weeks, 25° C., daylight): 98.0% | Content (HPLC), Initial ([1]; initial): 99.5% | Solubility [2]: 520 mg/mL | Solubility ([2]; pH 3): 400≦ mg/ml | Solubility ([2]; pH 4): 400≦ mg/ml | Solubility ([2]; pH 6): 400≦ mg/ml | Solubility ([2]; pH 7): 400≦ mg/ml | Solubility ([2]; pH 8): 400≦ mg/ml | Content, storage period 1 week ([3]; 1 week): 99.7% | Content, storage period 2 weeks ([3]; 2 weeks): 99.3% | Content, storage period 4 weeks ([3]; 4 weeks): 99.1% | Content, storage period initial ([3]; initial): 99.7%
